The chains behind the UniProt entries cited, without tags or fusion partners.
UniProt P33535, whole entry: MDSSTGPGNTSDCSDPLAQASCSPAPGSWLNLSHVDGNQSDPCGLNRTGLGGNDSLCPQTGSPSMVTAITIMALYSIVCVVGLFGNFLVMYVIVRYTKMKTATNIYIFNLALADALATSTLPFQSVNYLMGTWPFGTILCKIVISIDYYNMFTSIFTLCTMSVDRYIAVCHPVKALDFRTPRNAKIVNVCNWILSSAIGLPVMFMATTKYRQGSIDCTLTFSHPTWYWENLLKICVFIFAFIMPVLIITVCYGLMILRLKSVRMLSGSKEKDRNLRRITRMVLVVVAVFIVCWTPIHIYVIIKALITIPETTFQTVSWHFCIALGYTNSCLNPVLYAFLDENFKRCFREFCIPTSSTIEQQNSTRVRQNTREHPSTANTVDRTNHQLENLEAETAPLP

In BindingDB's records for doi:10.1021/acs.jmedchem.8b01327 (2019):

Target: Mu-type opioid receptor (Rattus norvegicus, UniProt P33535)
Assay: Displacement of [3H]DAMGO from mu opioid receptor in rat brain membranes incubated for 45 mins by liquid scintillation counting method
How it was run: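 Rat brain membranes (cerebella removed; 0.3–0.5 mg protein) in 50 mM Tris-HCl, pH 7.4, were incubated 45 min at 35 °C with 1 nM [3H]DAMGO (MOR) or 0.5 nM [3H][Ile5,6]deltorphin II (DOR) plus varied test concentrations. Nonspecific binding was set with 10 μM naloxone. Samples were GF/C filtered, washed and scintillation counted. Ki was obtained by Cheng–Prusoff; duplicates, 3–4 experiments.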

CN1CC[C@]23c4c5ccc(O)c4O[C@H]2[C@H](NCC(=O)O)CC[C@@]3(O)[C@H]1C5
Ki: 0.83 nM
